The values below come from ChEMBL document CHEMBL1133722 (J Med Chem, 2000).

Amino acid sequences for entries named in this document (tags omitted).
UniProt P35372, whole entry, looked up: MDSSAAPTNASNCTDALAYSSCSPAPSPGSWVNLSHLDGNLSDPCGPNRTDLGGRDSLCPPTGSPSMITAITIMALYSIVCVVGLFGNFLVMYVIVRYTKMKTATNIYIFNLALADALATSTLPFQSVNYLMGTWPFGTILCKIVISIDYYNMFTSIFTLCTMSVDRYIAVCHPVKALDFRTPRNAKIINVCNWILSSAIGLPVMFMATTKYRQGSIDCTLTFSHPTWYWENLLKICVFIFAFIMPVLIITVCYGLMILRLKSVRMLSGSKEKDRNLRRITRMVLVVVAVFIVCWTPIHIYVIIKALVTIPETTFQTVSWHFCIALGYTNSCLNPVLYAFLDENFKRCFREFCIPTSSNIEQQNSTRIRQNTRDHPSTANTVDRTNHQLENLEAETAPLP

In assay [1] the target is T1, Mu-type opioid receptor (Homo sapiens, UniProt P35372). In words: Binding affinity using [3H]diprenorphine as the radioligand against wild-type Opioid receptor mu 1 in COS-7 cells.
The target of assay [2] is T1, Mu-type opioid receptor. As to the kind of experiment: Binding affinity using [3H]diprenorphine as the radioligand against K303E Opioid receptor mu 1 in COS-7 cells.

Broadly, the Ki is a dissociation constant, usually derived from enzyme kinetics or from competition with a known ligand. With `CO[C@]12CC[C@@]3(C[C@@H]1C(C)(C)O)[C@H]1Cc4ccc(O)c5c4[C@@]3(CCN1CC1CC1)[C@H]2O5`, the Ki in assay [1] amounted to 0.27 nM; in assay [2], 0.33 nM.
